The target in this test is δ-plasmin (Homo sapiens, UniProt P00747, DEL181-559). The test can be described thus: S-2251 inhibition assay (Dixon plot), δ-plasmin. The class given is biochemical. As to conditions: read-out: Ki (δ-plasmin), S-2251 100, 350, 750 μM, enzyme 1.0 μg/mL, PBS pH 7.4, unit inferred.

`N=C(N)c1ccc(OCCCCCOc2ccc(C(=N)N)cc2)cc1` [Pentamidine]: the Ki was 4 µM.

Source of the values: patent publication US20220218639A1, “TUNEABLE DELIVERY OF NANOPARTICLE BOUND ACTIVE PLASMIN FOR THE TREATMENT OF THROMBOSIS” (Indiana University Research and Technology Corporation, priority 2014, published 2022).
